We go through one substance from article PMC11640758.

The target of the assay is nanodisc (supramolecular protein assembly of SRP-A and 1,2-dimyristoyl-sn-glycero-3-phosphocholine, DMPC) (human). Briefly: SPR. Background: SPR reads the build-up and loss of mass on a sensor chip optically.

The Kd is the concentration at which binding is half-saturated. Turning to “amyloid beta (Aβ) 1–42 (from UniProt P05067 672-713) (peptide)”, the dissociation constant Kd was determined as 1360 nM.
